Test results published in ChEMBL document CHEMBL4823263, “Discovery of 2-(3-(3-Carbamoylpiperidin-1-yl)phenoxy)acetic Acid Derivatives as Novel Small-Molecule Inhibitors of the β-Catenin/B-Cell Lymphoma 9 Protein-Protein Interaction” (J Med Chem, 2021).

Protein sequences, listed by entry. Tags and fused reporters are not part of them.
UniProt P35222, whole entry: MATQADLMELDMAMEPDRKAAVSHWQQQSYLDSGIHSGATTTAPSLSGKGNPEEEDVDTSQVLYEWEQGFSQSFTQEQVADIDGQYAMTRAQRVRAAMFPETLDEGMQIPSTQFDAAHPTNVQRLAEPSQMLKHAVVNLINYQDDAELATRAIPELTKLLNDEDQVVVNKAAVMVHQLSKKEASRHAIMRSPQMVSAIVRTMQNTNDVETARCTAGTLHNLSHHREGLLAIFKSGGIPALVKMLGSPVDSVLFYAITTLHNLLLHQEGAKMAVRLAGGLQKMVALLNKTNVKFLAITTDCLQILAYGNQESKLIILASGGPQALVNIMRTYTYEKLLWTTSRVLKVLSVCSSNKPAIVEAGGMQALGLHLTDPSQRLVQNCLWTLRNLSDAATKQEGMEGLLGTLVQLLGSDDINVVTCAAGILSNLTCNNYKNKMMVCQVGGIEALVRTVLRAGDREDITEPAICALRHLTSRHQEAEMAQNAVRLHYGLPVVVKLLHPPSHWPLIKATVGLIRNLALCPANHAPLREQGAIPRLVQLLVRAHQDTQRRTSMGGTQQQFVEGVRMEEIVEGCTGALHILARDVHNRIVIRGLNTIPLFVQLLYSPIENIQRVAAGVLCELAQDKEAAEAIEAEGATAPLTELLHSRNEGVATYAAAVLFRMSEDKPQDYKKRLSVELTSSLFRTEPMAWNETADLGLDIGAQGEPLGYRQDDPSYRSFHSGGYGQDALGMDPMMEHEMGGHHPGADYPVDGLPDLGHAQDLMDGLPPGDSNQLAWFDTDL

Biological target: beta-catenin-B-cell lymphoma 9 protein complex (Homo sapiens, UniProt P35222)
Test: Inhibition of full length C-terminal 6-His-tagged beta-catenin (1 to 781 residues) (unknown origin) expressed in Escherichia coli BL21 (DE3)-N-terminal biotinylated human BCL9 (350 to 375 residues) protein-protein interaction incubated for 1 hr by Alphascreen assay

`CC(C)c1ccc(COC(=O)N2CCC[C@@H](c3cccc(OC(C)(C)C(=O)O)c3)C2)cc1` showed a pIC50 of 4.92 and a pKi of 4.96.

pIC50, pKi: −log10 of the molar value.
